System: basophils in human whole blood (CD63 expression)
Assay: 384-Well HTBS Whole Blood CD63 Basophil Assay (25% blood)
Assay type: cell-based
Conditions: comparison table with known compounds, head prints IC50
Protocol: Syk activity was assessed in relation to reduced activation of basophils as measured by the expression of CD63 in a human whole blood basophil cellular assay (25% blood). Basophil activation was measured in human whole blood using the Flow CAST kit (Buhlmann Laboratories AG, Baselstrasse, Switzerland) following the protocol provided by the manufacturer with minor modifications. Fresh human whole blood in heparin was collected and delivered same day (AllCells, Emeryville, Calif.). Whole blood samples were incubated with either DMSO (1% final) or serial diluted compounds in DMSO for 60 minutes at 37° C. Basophils were activated using the anti-FceRI mAb and stained with anti-CD63-FITC and anti-CCR3-PE for 20 minutes at 37° C. (per well: 50 μL of whole blood was mixed with 113 μL of stimulation buffer, 8.5 μL anti-FceRI mAb, 8.5 μL Ab stain CCR3-PE/CD63-FITC). Cells were centrifuged at 1000×g for 18 minutes and 150 μL/well of supernatant removed. […] Degranulation (basophil activation) was detected by CD63 surface expression on CCR3 positive cells. The percent CD63 positive cells within the gated basophil population were determined and normalized to the DMSO (negative control) and control compound (positive control).

## COc1ccc(Nc2nc(-c3ccc(N)nc3)cn3ccnc23)cc1OC [6-(6-aminopyridin-3-yl)-N-(3,4-dimethoxyphenyl)imidazo[1,2-a]pyrazin-8-amine, reference compound]
  IC50: 0.734 µM

— patent publication US10342794B2, “Substituted imidazo[1,2-a]pyrazines as Syk inhibitors” (Gilead Sciences, Inc., priority 2013, dated 2019)
